The values that follow are results of earlier work, collected in patent US11793867B2, “Neoantigens and uses thereof” (BIONTECH US INC., priority 2017, dated 2023).

The conditions of this series: more than 25 clinical trials; cited from earlier work.

Consider poly-ICLC, for which the toxicity profile result is listed as “relatively benign toxicity profile”.
